The list shows a part of the results, in another mix than the full data. Results filed as inconclusive are left out. Calls of active or inactive are those of the source. Calls follow the shape of the dose curve; as a rule, active = well fitted cell-killing curve with a large enough effect; inconclusive = small, poorly fitted or top-dose-only effect; inactive = no such curve, though single readings can be large or run the other way.
Assay: qHTS Screen for Compounds that Selectively Target Cancer Cells with p53 Mutations: Cytotoxicity of p53ts Cells at the Permissive Temperature;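 also: 0% = DMSO and -100% = full killing by reference compound; nearly all actives have a fitted effect of over 55% in size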
Settings: H1299-p53A138V at 32C, ATP luminescence viability, 24 h; at 46.1 µM (top of the series)
With CCOP1(=S)c2c(C)nn(CCC#N)c2N=C(c2ccccc2F)N1C (stereo unspecified) the activity change, negative = cytotoxicity was inactive: 13.7%.
